Values of other authors as cited in US6328989A, “Use of bicozamycin for the manufacture of a medicament for treating infections with enterohemorrhagic e. coli” (Fujisawa Pharmaceutical Co., Ltd., priority 1997, dated 2001).

Tested on: E. coli
Settings: cited from earlier work

In the case of `CCn1cc(C(=O)O)c(=O)c2cc(F)c(N3CCNCC3)cc21` [NFLX, norfloxacin], the “antibacterial activity against E. coli” value is listed as “strong antibacterial activity against E. coli”.
